Among the data in PubChem BioAssay AID624465 (National Center for Advancing Translational Sciences (NCATS), 2012) are activation values, retold here.

Sequences of proteins named here, by UniProt entry; tags and fusion partners are left off.
UniProt P14416, whole entry: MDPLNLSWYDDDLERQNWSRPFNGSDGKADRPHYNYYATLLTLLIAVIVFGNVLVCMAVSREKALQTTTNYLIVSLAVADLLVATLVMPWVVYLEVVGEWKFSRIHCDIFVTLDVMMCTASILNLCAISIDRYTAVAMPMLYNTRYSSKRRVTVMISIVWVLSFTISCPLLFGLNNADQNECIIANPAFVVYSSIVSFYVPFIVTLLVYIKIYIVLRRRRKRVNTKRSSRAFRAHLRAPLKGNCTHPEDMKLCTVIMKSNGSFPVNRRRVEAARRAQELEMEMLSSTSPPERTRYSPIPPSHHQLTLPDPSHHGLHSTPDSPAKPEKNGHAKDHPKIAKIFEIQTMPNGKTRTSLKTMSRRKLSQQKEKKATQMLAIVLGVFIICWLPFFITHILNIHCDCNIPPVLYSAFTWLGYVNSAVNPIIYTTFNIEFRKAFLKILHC

Molecules are shown by their SMILES. This is a selection; strong and weak results do not stand in their true shares. Activity calls are given as the source filed them. No stated cut-off is given here; in the data, active means activation above about 40%; inconclusive means between about 15% and that limit; inactive means weaker than that.

This test has as its target D(2) dopamine receptor (Homo sapiens) (UniProt P14416). Kind of test: Beta-Arrestin HTS for Positive Allosteric Modulators of the Human D2 Dopamine Receptor: Agonists. To be noted: DiscoveRx PathHunter D2 beta-arrestin, luminescence, 90 min; hits give high values; 100% = 57 uM dopamine signal. The source says: There is great interest in identifying small molecule ligands for G-protein coupled receptors (GPCRs) as nearly 50% of all FDA-approved drugs target these important receptor proteins. […] Amongst the dopamine receptors (DARs), the D2 is arguably one of the most validated drug targets in neurology and psychiatry. For instance, all receptor-based antiparkinsonian drugs primarily work via stimulating the D2 DAR, whereas all FDA-approved antipsychotic agents are antagonists of this receptor. The D2 DAR is also therapeutically targeted in other disorders such as restless legs syndrome, tardive dyskinesia, Tourette's syndrome, and hyperprolactinemia.
To this end, a miniaturized qHTS screen was developed to be screened against the Molecular Libraries Small Molecule Repository (MLSMR). This assay seeks to identify agonists against the D2 DAR.
NIH Molecular Libraries Probe Production Network [MLPCN]
NIH Chemical Genomics Center [NCGC]
PI Name: David Sibley, National Institutes of Neurological Disorders and Stroke
DiscoveRx D2 cells were thawed from frozen stock and seeded at 2,100 cells/ 3 uL/well media (DiscoveRx Plating Reagent 2) with MultiDrop Combi dispenser (Thermo Scientific, Logan, UT) onto white tissue culture treated 1536-well Aurora plates (Brooks Automation, Chelmsford, MA) and allowed to attach overnight at 37 deg C, 5% CO2. Next, 23 nL/well of compound solutions in DMSO were added with a pintool transfer (Kalypsis, San Diego, CA). As the positive control, 1 uL/well dopamine (EC100, 57 uM final concentration) diluted in buffer (HBSS + 10 mM HEPES + SMB + 0.1% Tween-20) was dispensed to 1 column of each plate. The rest of the plate was dispensed with buffer only, 1 uL/well as well. The cells were stimulated by compounds or dopamine control for 90 minutes at 37 deg C, 5% CO2, after which 1.5 ul/well of DiscoveRx detection reagent was added with BioRAPTR FRD dispenser. The detection reagent was prepared by mixing of Galacton Star Substrate, Emerald II solution and PathHunter buffer (supplied by the assay kit) together at 1:5:19 proportion accordingly just prior to dispensing. The plates were incubated at ambient temperature for 1 hour and then the luminescent signal was read on ViewLux plate reader (PerkinElmer, Waltham, MA).
As to `COc1ccccc1OP(C)(=O)Nc1ccc(Br)cc1` (stereo unspecified), the activation was inactive: -4.22%.

Turning to `CN(C(=O)Cc1ccc(Cl)c(Cl)c1)[C@H]1CCCC[C@H]1N1CCCC1`, the activation was inactive: -3.68%.

For the compound `Cc1ccc(OP(=O)(Nc2nccs2)Oc2ccc(C)cc2)cc1`, the activation is inactive: -5.33%.

In the case of `COc1ccc(OP(C)(=O)Nc2ccccn2)cc1` (stereo unspecified), the activation is inactive: 0.63%.

Consider `COc1ccccc1OP(=O)(Nc1ccc(C)cn1)Oc1ccccc1OC`, for which the activation is inactive: -4.33%.

For `CN(C)CCOC(=O)C(O)(c1ccccc1)C1CCCC1` (stereo unspecified), the activation is inactive: -2.33%.

On to `Clc1ccc(Cl)c(NC2=NCC(CBr)S2)c1` (stereo unspecified), for which the activation was inactive: -1.69%.

As for `CN1CCCC(OC(=O)C(c2ccccc2)c2ccccc2)C1` (stereo unspecified), the activation was inactive: -6.83%.

As for `O=[N+]([O-])c1cc([N+](=O)[O-])c(Nc2ccccn2)c([N+](=O)[O-])c1`, the activation is inactive: 1.33%.

For the compound `CC(C)CC(=O)NC(Sc1ccc(Cl)cc1)C(Cl)(Cl)Cl` (stereo unspecified), the activation is inactive: 0.0663%.

Regarding `Nc1cc(N)c2nonc2c1[N+](=O)[O-]`, the activation was inactive: 11.5%.

Regarding `Cc1c(NP(C)(=O)Oc2ccc(C(C)C)cc2)c(=O)n(-c2ccccc2)n1C` (stereo unspecified), the activation was inactive: 0.755%.

As to `O=C(NC(Sc1ccncn1)C(Cl)(Cl)Cl)c1ccccc1` (stereo unspecified), the activation was inactive: -0.84%.

For the compound `Oc1ccccc1CNc1ccccn1`, the activation was inactive: 2.31%.

Take `COc1ccccc1OP(C)(=O)Nc1ccc(C)cc1C` (stereo unspecified): the activation was inactive: -1.2%.

Take `CP(=O)(Nc1ccccn1)Oc1ccccc1` (stereo unspecified): the activation is inactive: -1.06%.

Regarding `O=[N+]([O-])C1C(O)C(O)C([N+](=O)[O-])C(O)C1O` (stereo unspecified), the activation is inactive: 4.11%.

In the case of `CCc1ccc(OP(C)(=O)O)cc1`, the activation is inactive: -4.05%.

Regarding `CCCC1OP(N)(=O)OCC1CC` (stereo unspecified), the activation is inactive: -2.33%.

As for `O=C(O)c1ccccc1[As](=O)(O)O`, the activation was inactive: 0.761%.

`CC(=O)Nc1ccc([As](=O)(O)O)cc1`: the activation is inactive: -3.02%.

Consider `CN(C)P(=O)(N(C)C)n1c(Nc2ccccc2)nnc1-c1ccccc1`, for which the activation was inactive: -6.91%.

Take `Cc1cc(C)cc(OP(C)(=O)Nc2cccc(C(F)(F)F)c2)c1` (stereo unspecified): the activation was inactive: 0.857%.

With `O=P(Nc1nc2ccc(Cl)cc2s1)(c1ccccc1)c1ccccc1`, the activation was inactive: -2.38%.

For the compound `CN(C(=O)Cc1ccc(Cl)c(Cl)c1)[C@H]1CCCC[C@@H]1N1CCCC1`, the activation was inactive: -3.15%.

`Cc1ccc(NP(=O)(Oc2ccccc2F)Oc2ccccc2F)nc1`: the activation was inactive: -19.9%.

Take `COc1ccccc1OP(C)(=O)Nc1ccc(C)c(C)c1` (stereo unspecified): the activation was inactive: -3.5%.

As to `CCOP(=O)(Nc1ccccc1)OCC`, the activation was inactive: -2.06%.

On to `Cc1cc(SC(NC(=O)c2ccc(F)cc2)C(Cl)(Cl)Cl)ncn1` (stereo unspecified), for which the activation was inactive: -4.68%.

Regarding `COc1ccc(OP(C)(=O)Nc2ccccc2Br)cc1` (stereo unspecified), the activation is inactive: -1.48%.

In the case of `CCN(N=Nc1nonc1N)c1nonc1N`, the activation is inactive: -2.56%.

As to `CP(=O)(OCCOc1ccccc1)OCCOc1ccccc1`, the activation is inactive: -0.181%.

With `CP(=O)(Nc1ccc(Cl)cc1Cl)Oc1ccccc1` (stereo unspecified), the activation was inactive: 2.29%.

For `CCCCCCCCCCCCCCCC1C[N+](C)(C)CCOP(C)(=O)O1` (stereo unspecified), the activation is inactive: -3.99%.

In the case of `Nc1cccc2ccc([As](=O)(O)O)cc12`, the activation was inactive: 8.04%.

On to `Nc1ccc2c(ccc3cccnc32)n1.O=[N+]([O-])c1cc([N+](=O)[O-])c(O)c([N+](=O)[O-])c1`, for which the activation was inactive: -6.59%.

For the compound `O=P1(N(CCCl)CCCl)OCCCS1` (stereo unspecified), the activation is inactive: -2.88%.

On to `O=C(Nc1cc([As](=O)(O)O)ccc1O)c1ccccc1`, for which the activation was inactive: 2.71%.

With `CCOC(=O)c1ccc(NP(C)(=O)Oc2ccc(Cl)cc2)cc1` (stereo unspecified), the activation is inactive: -1.17%.

With `CP(=O)(OC12CC3CC(CC(C3)C1)C2)OC12CC3CC(CC(C3)C1)C2`, the activation is inactive: -0.338%.

Turning to `CC(C)(C)C(=O)NC(Sc1ccncn1)C(Cl)(Cl)Cl` (stereo unspecified), the activation is inactive: -4.03%.

Take `O=[N+]([O-])c1ncn(CCn2ncnc2[N+](=O)[O-])n1`: the activation is inactive: 11.6%.

For the compound `O=[N+]([O-])c1cccc(NC2=NCC(CBr)S2)c1` (stereo unspecified), the activation was inactive: -6.04%.

Regarding `COC(=O)C1(C)COP(=O)(Nc2ccccc2)OC1` (stereo unspecified), the activation was inactive: -0.969%.

For the compound `O=C(O)CNc1ccc([As](=O)(O)O)cc1`, the activation was inactive: -5.55%.

In the case of `COc1ccc(C2=NCC(CBr)S2)cc1` (stereo unspecified), the activation was inactive: -1.93%.

Regarding `COc1ccc(OP(C)(=O)Nc2ccc(Br)cc2)cc1` (stereo unspecified), the activation is inactive: 1.76%.

Take `CCN(CC)CC(O)COC(=O)C(O)(c1ccccc1)C1CCCCC1` (stereo unspecified): the activation is inactive: -4.57%.

With `O=C(OCCCN1CCCC1)C(O)(c1ccccc1)C1CCCCC1` (stereo unspecified), the activation is inactive: -2.43%.

Take `COc1ccccc1OP(C)(=O)Nc1c(C)n(C)n(-c2ccccc2)c1=O` (stereo unspecified): the activation was inactive: -4.67%.

As to `CC(=O)N1C2C3N(C(C)=O)C1C1N(C(C)=O)C(C(N1C(C)=O)N3C(C)=O)N2C(C)=O`, the activation is inactive: -3.6%.

Turning to `O=[N+]([O-])c1cccc2n[nH]nc12`, the activation was inactive: -0.568%.

Regarding `CCc1ccc(OP(C)(=O)Nc2cccnc2)cc1` (stereo unspecified), the activation is inactive: -5.06%.

With `Cc1ccc(NP(=O)(Oc2ccccc2)Oc2ccccc2)nc1`, the activation was inactive: -2.65%.

Consider `CP(=O)(Oc1ccccc1)N1CCOC1=O` (stereo unspecified), for which the activation is inactive: -2.37%.

As to `C[N+]1=C2C=CC=CC=C2SC12C([N+](=O)[O-])=CC([N+](=O)[O-])=C[C-]2[N+](=O)[O-]` (stereo unspecified), the activation was inactive: -8.78%.

With `Nc1ccc([As](=O)(O)c2ccc(N)cc2)cc1`, the activation is inactive: -2.57%.

In the case of `CC(C)(C)c1ccc(OP(C)(=O)O)cc1`, the activation is inactive: -1.96%.

With `COc1ccccc1OP(C)(=O)Nc1ccccc1Br` (stereo unspecified), the activation is inactive: 0.712%.

As to `CP(=O)(Nc1ccc(Cl)cc1)Oc1ccc(F)cc1` (stereo unspecified), the activation is inactive: 1.23%.

Take `CCN(/C(=N/P(=O)(N1CCOCC1)N1CCOCC1)N1CCOCC1)c1ccc(OC)cc1`: the activation was inactive: -2.97%.

As to `CN(C)C(=O)OCCc1n(C)cc[n+]1C`, the activation is inactive: -4.13%.

Take `CC(C)=N/N=C(\N)N[N+](=O)[O-]`: the activation was inactive: -4.42%.

For `CC(C)c1nc(Nc2ccccc2)n(P(=O)(N(C)C)N(C)C)n1`, the activation is inactive: -8.43%.

With `c1cc(-c2nn[nH]n2)ccc1-c1nn[nH]n1`, the activation is inactive: -14.1%.

Turning to `CC1CCN(C(=O)Oc2c(Cl)cc(Cl)c3cccnc23)CC1`, the activation was inactive: -3.1%.
